Measured values: US20090117153A1

The chains behind the UniProt entries cited, without tags or fusion partners. A line that says so, or that is headed by a name, gives the form on record, which may keep a tag or linker.
UniProt P01887, other isoform, or with tags, fused parts or gaps, stated change not applied: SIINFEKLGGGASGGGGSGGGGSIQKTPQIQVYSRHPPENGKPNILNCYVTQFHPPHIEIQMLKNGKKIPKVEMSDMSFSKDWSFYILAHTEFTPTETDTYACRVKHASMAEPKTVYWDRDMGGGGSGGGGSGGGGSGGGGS

Molecular target: OVA.β2m.Kb SCT Y84A (mouse) (UniProt P01887)
Experiment: cell-based or functional assay

VSV8 peptide showed a VSV8 concentration that activates the N15 hybridoma to the same level; 3KO cells of 1000 nM.
